Our source for the amount of pulled-down syndecan-4 against wt-syndecan-4 (% more than wt-syndecan-4), relative Rac1-GTP level (nt, not treated) (relative to wt-syndecan-4 line) and Rac1-GTP level (fold decrease) values is US20110124572A1, “SYNDECAN-4 IS A REGULATOR OF RAC1-GTP” (priority 2008, published 2011).

Sequences of proteins named here, by UniProt entry; tags and fusion partners are left off. Residues count along the entry.
UniProt Q13153, 67-150 limits assumed: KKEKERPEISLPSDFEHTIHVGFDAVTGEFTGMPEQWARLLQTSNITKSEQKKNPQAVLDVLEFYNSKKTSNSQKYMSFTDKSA
UniProt Q13009, 2-1591 limits assumed: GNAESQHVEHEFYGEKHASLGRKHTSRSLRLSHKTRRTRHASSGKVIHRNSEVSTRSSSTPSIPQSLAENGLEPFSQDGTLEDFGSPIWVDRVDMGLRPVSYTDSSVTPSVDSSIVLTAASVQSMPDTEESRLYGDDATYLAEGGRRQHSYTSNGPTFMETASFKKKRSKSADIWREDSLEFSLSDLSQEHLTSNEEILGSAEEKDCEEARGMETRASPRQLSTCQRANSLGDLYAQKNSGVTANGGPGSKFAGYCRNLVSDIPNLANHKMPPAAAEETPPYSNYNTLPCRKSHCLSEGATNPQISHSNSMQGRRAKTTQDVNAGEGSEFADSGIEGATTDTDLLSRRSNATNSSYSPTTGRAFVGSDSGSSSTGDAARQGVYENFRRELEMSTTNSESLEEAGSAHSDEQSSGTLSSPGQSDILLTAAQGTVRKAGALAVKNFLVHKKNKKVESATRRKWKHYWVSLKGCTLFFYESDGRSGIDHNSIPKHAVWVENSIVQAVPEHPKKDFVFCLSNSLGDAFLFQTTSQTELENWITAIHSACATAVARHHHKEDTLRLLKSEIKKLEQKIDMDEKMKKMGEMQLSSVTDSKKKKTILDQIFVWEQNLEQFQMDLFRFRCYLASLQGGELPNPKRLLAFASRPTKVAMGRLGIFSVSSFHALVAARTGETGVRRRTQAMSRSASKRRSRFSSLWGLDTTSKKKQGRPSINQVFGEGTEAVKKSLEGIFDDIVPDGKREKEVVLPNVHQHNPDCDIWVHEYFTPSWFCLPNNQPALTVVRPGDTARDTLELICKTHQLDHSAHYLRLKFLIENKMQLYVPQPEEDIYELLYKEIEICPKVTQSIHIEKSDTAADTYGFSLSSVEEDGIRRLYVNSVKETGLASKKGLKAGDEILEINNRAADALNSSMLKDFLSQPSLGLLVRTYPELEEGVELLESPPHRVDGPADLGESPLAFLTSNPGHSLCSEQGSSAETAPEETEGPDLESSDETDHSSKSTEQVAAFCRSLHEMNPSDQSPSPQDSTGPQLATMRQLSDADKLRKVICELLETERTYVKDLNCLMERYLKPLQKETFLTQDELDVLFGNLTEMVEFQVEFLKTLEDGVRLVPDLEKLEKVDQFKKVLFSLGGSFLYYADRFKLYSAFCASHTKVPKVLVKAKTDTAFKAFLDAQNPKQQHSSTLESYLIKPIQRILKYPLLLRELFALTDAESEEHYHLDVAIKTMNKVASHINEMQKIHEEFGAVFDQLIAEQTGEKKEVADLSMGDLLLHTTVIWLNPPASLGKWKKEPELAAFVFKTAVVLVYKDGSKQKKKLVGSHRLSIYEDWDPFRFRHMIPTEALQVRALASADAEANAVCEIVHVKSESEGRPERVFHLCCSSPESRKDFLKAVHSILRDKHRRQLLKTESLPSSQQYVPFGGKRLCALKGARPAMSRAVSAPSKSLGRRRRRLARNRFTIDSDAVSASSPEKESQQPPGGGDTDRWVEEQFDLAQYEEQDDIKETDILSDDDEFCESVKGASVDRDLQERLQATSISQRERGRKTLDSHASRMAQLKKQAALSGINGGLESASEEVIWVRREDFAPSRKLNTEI

The target in test [1] is p21-binding domain of PAK-1 fused to agarose beads (GST-Pak1-Rac/Cdc42-binding domain), as used in the Rac1 activation kit (UniProt Q13153). In words: PAK-1 p21-binding domain (PAK-PKB) pull-down from cell lysate, blot with anti-syndecan-4 or anti-GFP.
Test [2] deals with Tiam-1, Rac1-specific guanine nucleotide exchange factor (RacGEF) (UniProt Q13009). In words: cell-based or functional assay.

Substance “Ser179Ala syndecan-4 (GFP chimera, phosphodefective mutant) (from UniProt P31431 19-198; P42212 1-238)” registered an amount of pulled-down syndecan-4 against wt-syndecan-4 (% more than wt-syndecan-4) in test [1] of 20. The relative Rac1-GTP level (nt, not treated) (relative to wt-syndecan-4 line) in test [2] is 1.9.

Regarding “Ser179Glu syndecan-4 (GFP chimera, phospho-mimetic mutant) (from UniProt P31431 19-198; P42212 1-238)”, in test [2], the Rac1-GTP level (fold decrease) is 1.5 and the relative Rac1-GTP level (nt, not treated) (relative to wt-syndecan-4 line) was found to be 0.6.
